# Rango-impB inh – prevents formation of the Rango-importin beta complex; Q14974; Rango CFP/YFP FRET sensor + importin beta, 45 min; Potency, µM (doses to about 92.2 µM); actives 0.031% (n = 340,000); AID 540263; also: nearly all actives have a fitted effect of over 15% in size
#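 FRET biosensor Rango (snurportin 1 IBB between N-terminal EYFP and C-terminal Cerulean), 50 nM in PBS/1 mM DTT/0.02% Tween-20/0.1% BSA, preincubated 5 min RT with compound; 0.125 microM importin beta added, 45 min RT, CFP/YFP FRET ratio read.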
# CCT chaperon mod – changes cytosolic chaperonin activity; purified chaperonin ATPase assay, HTRF ADP detection, 30 min; actives 0.3% (n = 360,000); activity change, % (concentration not given with the values), hits read low; in the data active = activity change below about -30%
#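 ATPase activity: ADP formed was measured by HTRF Transcreener (665/615 nm ratio) after 30 min at 37 deg C with 10 uM ATP. Compounds screened at one 76 uM concentration against 40 or 20 nM TRiC in Tris pH 7.4/KCl/MgCl2/DTT buffer.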
# Rango release inh – inhibition of RanGTP-driven Rango-importin beta dissociation. Biochemical FRET Rango-importin beta, RanGTP-induced dissociation. Potency, µM (doses to about 46.1 µM). actives 0.071% (n = 340,000). AID 540253; also: nearly all actives have a fitted effect of over 45% in size
#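 Quantitative HTS using a FRET biosensor: 0.1 uM Rango, 0.25 uM importin beta, 0.6 uM Ran, 2 mM GTP, 0.2 uM RCC1 final, PBS with DTT, Tween-20 and BSA. Post-read taken 45 min after Ran addition.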
# MmCpn inh – M. maripaludis TRiC chaperonin inhibition. actives 0.031% (n = 330,000). Potency, µM (series often up to 76.9 µM), hits mostly inhibitors. AID 504842. purified Mm-Cpn ATPase, ADP Transcreener TR-FRET; active = well fitted inhibition curve with a large enough effect; inconclusive = small, poorly fitted or top-dose-only effect; also: nearly all actives have a fitted effect of over 80% in size
#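 Eu-cryptate anti-ADP/ADP-d2 competition gives a ratio inversely related to ADP. Enzyme at 25 nM was pre-exposed to compound for 10 min, then given 10 uM ATP for 30 min, 37°C throughout.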
# KCNH2 WT inh – inhibitors of human wildtype KCNH2 potassium channel. actives 0.37% (n = 340,000). Q12809. activity change, % at 1.84 µM. AID 720551. U2OS, BacMam KCNH2, thallium flux FluxOr; stronger effect = lower value;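 active = maximum activity change below -70%; inconclusive = maximum activity change between -70% and -50%; inactive = maximum activity change above -50%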
#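 U2OS cells were transduced with wild-type KCNH2 virus (2.03 x 10^8 / mL) for 4 h at room temperature, then cultured overnight at 37 C. Thallium flux was read with FluxOr dye. Rate constants were normalized to DMSO controls.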
# KCNH2 3.1 inh – KCNH2 3.1 (human) potassium channel inhibition | actives 0.95% (n = 340,000) | activity change, % (tested at about 1.8 µM) | U2OS KCNH2 3.1, thallium flux FluxOr; stronger effect = lower value;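 active = maximum activity change below -70%; inconclusive = maximum activity change from -70% to -50%; inactive = maximum activity change above -50%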;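 also: thallium influx rate constant from kinetic fluorescence after stimulation buffer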
#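 Thallium flux read-out: FluxOr dye with Red40 quencher in HBSS/HEPES, 45 min at RT. Rate constants from kinetic reads were normalized to positive and negative DMSO controls. Cells: U2OS virally expressing the 3.1 isoform.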
# Numbers stand for hits; . = inactive; ? = inconclusive; / = no result given. The list is not random: actives were taken first. Their share in the collection is about 1.4%. Unless noted, calls follow the shape of the full dose curve.
SMILES,Rango-impB inh,CCT chaperon mod,Rango release inh,MmCpn inh,KCNH2 WT inh,KCNH2 3.1 inh
CCOC(=O)c1c(-c2ccccc2)nc2c(C)cccn12,.,-119,.,.,.,.
O=C(c1cc(F)ccc1F)N1CCC(N2CCC(C(=O)N3CCCC3)CC2)CC1,.,.,.,.,.,.
O=C(c1ccccc1Cl)N1CCC(N2CCC(C(=O)N3CCCC3)CC2)CC1,.,.,.,.,.,-87
Cc1ccc2cc(C)c(SCC(=O)Nc3ccc(S(=O)(=O)N4CCCC4)cc3)nc2c1,.,.,.,?,.,-100
Cc1ccc(-c2nnc(SCC(=O)Nc3ccc(S(=O)(=O)N4CCCCCC4)cc3)o2)cc1,.,.,.,.,.,.
O=C(NC1CCN(C(=O)NCc2ccccc2)CC1)c1ccccc1,.,.,.,.,.,.
COc1ccc(CNCC(O)(c2ccccc2)c2ccc(Cl)cc2)cc1 (centres undefined),.,.,.,.,.,-72
CCN(C(=O)COC(=O)c1cccnc1)c1cccc2ccccc12,.,-50,.,.,.,.
Clc1ccc(C2=NN(c3ccccc3)C(c3ccco3)C2)cc1 (centres undefined),?,.,?,.,?,.
Cc1nn2c(c1-c1ccc(Cl)cc1)N=C(c1ccco1)CC2c1ccccc1 (centres undefined),58µM,.,.,.,.,.
CN1C=CC=C/C1=C1/SC(=S)N(Cc2ccccc2)C1=O,.,-62,.,.,.,.
Fc1ccccc1/C=N/NC(=S)Nc1ccc(Cl)cc1Cl,.,.,.,.,.,.
Cc1ccc(S(=O)(=O)N2CCN(C(=O)COC(=O)c3ccc(Cl)nc3)CC2)c(C)c1,.,.,.,.,-162,.
Cc1ccc(S(=O)(=O)N2CCN(C(=O)COC(=O)c3cccnc3Cl)CC2)c(C)c1,.,.,.,.,.,.
Cc1ccc(C(=O)N(C)CC(=O)Nc2cccc(C)c2C)o1,.,.,.,.,.,.
COC(=O)c1ccc(CSc2nnc(-c3ccncc3)n2Cc2ccccc2)o1,.,.,.,.,-199,-173
COc1cccc(CN2CCC(n3nccc3NC(=O)CCCc3ccccc3)CC2)c1O,.,.,.,.,.,.
O=C(CCCc1ccccc1)Nc1ccnn1C1CCN(Cc2ccccc2)CC1,.,.,.,.,.,.
COc1ccc(CN2CCC(n3nccc3NC(=O)CCc3ccccc3)CC2)c(C)c1C,.,.,.,.,.,-81
CSc1ccc(CN2CCC(n3nccc3NC(=O)CCCc3ccccc3)CC2)cc1,.,.,.,.,-112,-114
COc1cc(CN2CCC(n3nccc3NC(=O)CCCc3ccccc3)CC2)ccc1F,.,.,.,.,.,-96
CCOc1ccc(CN2CCC(n3nccc3NC(=O)CCCc3ccccc3)CC2)cc1,.,.,.,.,-132,.
O=C(O)c1ccc2c(c1)C(=O)N([C@]1(C(=O)O)C[C@H]1c1ccccc1)C2=O,/,/,/,.,/,/
Cc1nnc(SCC(=O)Nc2ccc(Cl)cn2)s1,.,.,.,.,.,.
O=C(CCCc1ccccc1)Nc1ccnn1C1CCN(Cc2ccc(Cl)cc2)CC1,.,.,.,.,.,-103
SMILES,Rango-impB inh,CCT chaperon mod,Rango release inh,MmCpn inh,KCNH2 WT inh,KCNH2 3.1 inh
O=C(NCc1ccccn1)C(=O)NCC1OCCN1S(=O)(=O)c1ccc(F)cc1 (centres undefined),.,.,.,.,.,.
CCCc1cc(NC(=O)COC(=O)c2nccnc2N)n(-c2ccccc2)n1,.,.,.,.,.,.
COCCN(CC1CCCN(C2Cc3ccccc3C2)C1)C(=O)CCC(C)=O (centres undefined),.,.,.,.,.,.
COCCN(CC1CCCN(C2Cc3ccccc3C2)C1)C(=O)CCC(N)=O (centres undefined),.,.,.,.,.,-127
Fc1cccc(-c2cc3nc4c(c(NCc5ccco5)n3n2)CCCC4)c1,.,.,.,.,.,-78
CCCn1c(SCC(=O)N(C)C2CCCCC2)n[nH]c1=O,/,.,/,/,.,.
O=C(O)/C=C/c1cnc2ccccc2c1,.,.,.,.,.,.
CCNc1nn2ccccc2c1/C=C(\C#N)C(=O)OCC,?,.,10µM,.,.,.
COc1ccc(NC(=O)C2(C)CCN2C(=O)c2ccc(C(C)(C)C)cc2)cc1OC (centres undefined),/,.,/,/,/,/
CCCCN(C(=O)COC(=O)CSc1ccc([N+](=O)[O-])cc1)c1c(N)n(CCC)c(=O)[nH]c1=O,.,.,.,.,.,-115
CCOc1ccc(NC(=O)CN(C)C(=O)c2ccc(-c3ccc(C(C)=O)cc3)o2)cc1OCC,.,.,.,.,.,.
O=[N+]([O-])c1cc(C(F)(F)F)ccc1NC1CCN(Cc2ccccc2)CC1,.,.,.,.,.,-86
O=[N+]([O-])c1cc(C(F)(F)F)ccc1NC1CCN(Cc2ccccc2)C1 (centres undefined),.,.,.,.,-80,-91
Cc1cnc(NC(=O)Cc2ccc(C)c(C)c2)s1,.,.,.,.,.,.
Cc1[nH]c2ccccc2c1CCCO,?,.,?,.,.,.
Cc1[nH]c2ccccc2c1CCO,.,-31,.,.,.,.
COC(=O)[C@]1(C)N[C@H](CN(C)C(=O)Nc2ccc(C(F)(F)F)cc2)[C@@H]2C(=O)N(C)C(=O)[C@@H]21,.,.,.,.,.,/
CCN(CC)S(=O)(=O)c1ccc(C(=O)NC(=S)N2CCN(c3ccccc3O)CC2)cc1,/,-52,/,/,.,.
COc1ccc(Nc2oc(-c3ccccc3)nc2C#N)cc1,.,.,.,.,.,.
CNc1oc(-c2ccccc2)nc1C#N,.,.,.,.,.,-81
C[C@@H]1CN([C@H](C)CO)C(=O)CCCn2nncc2CO[C@H]1CN(C)C(=O)c1cc(-c2ccccc2)on1,/,.,/,/,.,-97
C[C@H](CO)N1C[C@H](C)[C@H](CN(C)C(=O)c2cc(-c3ccccc3)on2)OCc2cnnn2CCCC1=O,/,.,/,/,.,.
COc1ccc(/C=N/N2CCN(Cc3ccccc3)CC2)cc1,.,.,.,.,.,.
COc1ccc(/C=C/C2=CCN(Cc3ccc(OC)cc3)CC2)cc1,.,.,.,.,.,-79
O=C1N(Cc2cccc(Cl)c2)C[C@@H]2C[C@@H](c3cccn3-c3ccccn3)N3CCC[C@@]123,.,.,.,.,.,.
O=C1N(Cc2cccc(Cl)c2)C[C@@H]2C[C@@H](c3cccn3-c3nccs3)N3CCC[C@@]123,.,.,.,.,.,-86
COc1ccc(NC(=O)C2(C)CCCN(C(C)=O)C2)cc1F (centres undefined),/,.,/,/,/,/
